Experimental data: US20110104713A1, “PRODUCTS AND PROCESSES FOR MODULATING PEPTIDE-PEPTIDE BINDING DOMAIN INTERACTIONS” (published 2011)

T1: PoloBoxtide-9N (Artificial Sequence)
T1 peptide: MAGPMQS[pT]NLNGAKK

T2: PoloBoxtide-8pS (Artificial Sequence)
T2 peptide: MAGPMQS[pS]PLNGAYKK

T3: PoloBoxtide-optimal, MAGPMQ-S-pT-P-LNGAKK (Artificial Sequence)
T3 peptide: MAGPMQS[pT]PLNGAKK

B1: Plk-1 Polo-box domain (PBD), residues 326-603 (other)
chain: SIAPSSLDPSNRKPLTVLNKGLENPLPERPREKEEPVVRETGEVVDCHLSDMLQQLHSVNASKPSERGLVRQEEAEDPACIPIFWVSKWVDYSDKYGLGYQLCDNSVGVLFNDSTRLILYNDGDSLQYIERDGTESYLTVSSHPNSLMKKITLLKYFRNYMSEHLLKAGANITPREGDELARLPYLRTWFRTRSAIILHLSNGSVQINFFQDHTKLILCPLMAAVTYIDEKRDFRTYRLSLLEEYGCCKELASRLRYARTMVDKLLSSRSASNRLKAS
B2: mutant Plk1 PBD containing the W414F substitution (other)
chain: B1 chain with W89F

Experiments:
Test in all cases: isothermal titration calorimetry
[1] = target: T1, PoloBoxtide-9N
[2] = target: T2, PoloBoxtide-8pS
[3] = target: T3, PoloBoxtide-optimal, …

Row | fold increase in Kd against PoloBoxtide-optimal [1] [fold] | fold drop in affinity against PoloBoxtide-optimal [2] [fold] | Kd [3] [µM] | Binder
1 | > 5 | 7 |  | B1
2 |  |  | > 100 | B2

Residue numbers refer to the chain shown, from its start. Names may count otherwise. Non-standard residues stand in square brackets, D forms with d. No end group written: not given here. pT = C[C@@H](OP(=O)(O)O)[C@H](N)C(=O)O; pS = N[C@@H](COP(=O)(O)O)C(=O)O
